Laboratory results taken from US20060205037A1, “Modified transferrin fusion proteins” (priority 2003, published 2006).

Molecular target: GLP-1 receptor (CHO/GLP-1R cells, stably transfected CHO cells)
Experiment: cell-based or functional assay

exendin-4 (Bachem) (from UniProt P26349) (peptide)
intracellular cAMP in CHO/GLP-1R cells, EC50: 50 pM
